According to patent US20250051471A1, “Anti-Abcb1 Antibodies” (WILLIAM ROBERT ARATHOON LIVING TRUST DATED AUGUST 29, 2016, priority 2021, published 2025):

Legend:
[1] = test system: human Red Blood Cells; assay: Antibody binding to human red blood cells by flow cytometry; type: cell-based; conditions: species not given
Experimental: Antibody binding to human and cynomolgus RBC was assessed by flow cytometry. Normal human and cynomolgus whole blood was obtained from BiolVT. RBC were prepared by centrifugation of whole blood aliquots (0.5 mL) for 5 min at 500xg. Supernatant (plasma) was removed, and RBC washed 3 times in D-PBS+1 mM EDTA. After the final wash, the RBC were resuspended in D-PBS+1 mM EDTA to a final volume of 0.5 mL. Washed RBC were then diluted in flow cytometry buffer (D-PBS+2% FBS+0.05% sodium azide) to 2% and dispensed at […] into 96-well plates. An equivalent volume ([…]) of antibody serially diluted in flow cytometry buffer to 2× final was added to the RBC, and the mixture incubated for 1 hour at room temperature. Next, RBC were washed 3 times with flow cytometry buffer and resuspended in 50 μL of Alexa Fluor®647 conjugated Fab fragment goat anti-human IgG diluted 1:200 in flow cytometry buffer. After 20 minutes at room temperature RBC were washed twice, resuspended in flow cytometry buffer and analyzed using an Invitrogen™ Attune™ NXT flow cytometer. […] Left panel, RBC are gated (R1) based on forward and side scatter. Middle panel, a second gate (R2) is applied to eliminate any remaining doublets or aggregates. Right panel, fluorescence of the R2 gated cells is assessed and a final gate (R3) is set using unstained RBC. […]

[2] = test system: MES-SA/Dx5 cells; assay: In vivo anti-tumor effects on MES-SA/Dx5 multidrug resistance xenograft model; parameters: species or system athymic nude mice
Experimental: MES-SA/Dx5 cells were grown in RPMI-1640 supplemented with 10% FBS and 100 nM doxorubicin. Prior to implant cells were washed three times with D-PBS and resuspended in the same. Resuspended cells were mixed with an equal volume of Matrigel and xenografts were established by sub-cutaneous injection of 0.5×10^6 tumor cells into 5-8-week-old female athymic nude mice. Tumors were measured three times a week using a calibrated digital caliper, and tumor volumes (TV) were calculated as per the formula: TV=/*L*S*S, where L is the long axis and s is the short axis of the tumor. Once tumors reached 100-150 mm^3, mice were randomized into twelve groups of five mice each-(i) Control isotype IgG1 3 mg/kg, (ii) Control isotype IgG1 3 mg/kg and 20 mg/kg of paclitaxel, (iii) KNJYBisP1.1 3 mg/kg, (iv) KNJYBisP1.1 3 mg/kg and 20 mg/kg of paclitaxel, (v and vi) 15D3 HIR2/KT14 KbR1/B1.89v1.huL1(KV2) Bispecific 3 mg/kg, (vii and viii) 15D3 HIR2/KT14 KbR1/B1.89v1.huL1(KV2) Bispecific 3 mg/kg and 20 mg/kg of paclitaxel, (ix) 15D3hmz16-1 KK/KT14 DD/MRK16v4a1 Bispecific 3 mg/kg, (x) 15D3hmz16-1 KK/KT14 DD/MRK16v4a1 Bispecific 3 mg/kg and 20 mg/kg of paclitaxel, (xi) 15D3 HIR2/KT14 KbR1/B1VL6/CDR3v2a Bispecific 3 mg/kg, (xii) 15D3 HIR2/KT14 KbR1/B1VL6/CDR3v2a Bispecific 3 mg/kg and 20 mg/kg of paclitaxel.
Antibody and paclitaxel were dosed intraperitoneally twice a week for two consecutive weeks. […]

B1: KBisP1.1: ABCB1XCD47 bispecific antibody 15D3 HC KK/KT14 HC DD/MRK16 LC (antibody)
heavy 1: EVKVVESGGVLVRPGGSLKLSCAASGFTFSRYTMSWVRQTPEKRLEWVATISSGGGNTYYPDSVKGRFTVSRDNAMSSLYLQMSSLRSEDTALYYCARYGAGDAWFAYWGQGTLVTVSSASTKGPSVFPLAPSSKSTSGGTAALGCLVKDYFPEPVTVSWNSGALTSGVHTFPAVLQSSGLYSLSSVVTVPSSSLGTQTYICNVNHKPSNTKVDKKV[human IgG1 Fc with changes omitted]
heavy 2: QVQLVQSGAEVKKPGASVKVSCKASGYTFTNYNMHWVRQAPGQRLEWMGTIYPGNDDTSYNQKFKDRVTITADTSASTAYMELSSLRSEDTAVYYCARGGYRAMDYWGQGTLVTVSSASTKGPSVFPLAPSSKSTSGGTAALGCLVKDYFPEPVTVSWNSGALTSGVHTFPAVLQSSGLYSLSSVVTVPSSSLGTQTYICNVNHKPSNTKVDKKV[human IgG1 Fc with changes omitted]
light: DVLMTQTPVSLSVSLGDQASISCRSSQSIVHSTGNTYLEWYLQKPGQSPKLLIYKISNRFSGVPDRFSGSGSGTDFTLKISRVEAEDLGVYYCFQASHFPRTFGGGTKLEIKRTVAAPSVFIFPPSDEQLKSGTASVVCLLNNFYPREAKVQWKVDNALQSGNSQESVTEQDSKDSTYSLSSTLTLSKADYEKHKVYACEVTHQGLSSPVTKSFNRGEC
For B1, the “binding to red blood cells (in words)” value [1] was “No binding”, the “tumor growth inhibition / activity as a single agent” value ([2]; 3 mg/kg i.p.) was “significantly inhibited tumor growth” and the “tumor growth inhibition in combination with paclitaxel” value ([2]; 3 mg/kg plus paclitaxel 20 mg/kg) was “significantly inhibited tumor growth”.
